# Measured values reported in ChEMBL document CHEMBL4414592, “Aryl-fluorosulfate-based Lysine Covalent Pan-Inhibitors of Apoptosis Protein (IAP) Antagonists with Cellular Efficacy” (J Med Chem, 2019).
# Test: Stability in mouse plasma assessed as half life at 200 uM at 37 degC incubated up to 120 mins by mass spectrometry
# Assay type: ADME, cell-free
# Settings: 2 h
compound,measurement,value
CN[C@@H](C)C(=O)N[C@H](C(=O)N1CCC[C@H]1C(=O)N[C@@H]1CCc2c(OS(=O)(=O)F)cccc21)C1CCCCC1,t1/2,> 2 h
